Assay outcomes from PubChem BioAssay.
The list is not random: actives were taken first. Their share in the collection is about 1.3%.
ERG Ets-DNA blk: ERG Ets/DNA interaction inhibition | AID 624246 | P11308 | Potency, µM (titrated, usually from 76.9 µM), for the others: at the highest dose FP activity, negative = inhibition, usual class: inhibitors | 370,000 compounds, 0.028% hits | fluorescence polarization, His-ERG Ets domain / labelled DNA; active = well fitted inhibition curve with a large enough effect in the polarisation, with a control signal flat; inconclusive = small, poorly fitted or top-dose-only effect, or effect the other way, or a change in a side signal; inactive = no such curve, though single readings can be large or run the other way; the % refers to the polarisation;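 also: polarization taken with two DNA probes labelled with fluorescein and Texas red; potency is read from the fitted curve at half-maximal effect; % of control where 0% means no effect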
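His-tagged ERG Ets domain (1 uM in the protein solution; 300mM KCl, 50mM Tris-HCl, 1mM EDTA, 1mM DTT, pH 7.5) received compound, then a probe mix of 5 nM fluorescein-DNA and 100nM Texas-615-DNA. Fluorescence polarization was read for both dyes.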
PTHR1 ag: PTHR1 (human) receptor agonism. Q03431. HEK293 GP2 PTHR1 cells, GloSensor cAMP luminescence, 1 h. Potency, µM (titrated, usually from 115 µM), for inactives: at the highest dose activation, hits mostly activators. 410,000 compounds, 0.075% hits. AID 743266; also: potency is read from the fitted curve at half-maximal effect; nearly all actives have a fitted effect of over 55% in size
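HEK-293-derived GP2 cells expressing PTHR1 and a GloSensor cAMP reporter, 3,000/well, plated overnight, given luciferin plus IBMX (each 0.5 mM as added) for 1 h at 37 °C, then compound for 1 h at 37 °C. Luminescence was read after 15 min at room temperature.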
miR-21 FLuc: miR-21 reporter, rising signal; HeLa miR-21 FLuc reporter, luciferase, 48 h; Potency, µM (doses to about 38.3 µM), for inactives: at the highest dose reporter change, positive = more light; 340,000 tested, under 10 active; AID 2288; active = well fitted rising curve with a large enough effect; inconclusive = small, poorly fitted or top-dose-only effect; inactive = no such curve, though single readings can be large or run the other way;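 further: % of control where 0% means no effect; miR-21 action dims this reporter so a rising signal means less miR-21 action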
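HeLa cells stably expressing CMV-driven firefly luciferase with a downstream miR-21 binding sequence, endogenously expressing miR-21, were treated with titrations (up to about 40uM final) for 48 hours at 37 degree Celsius. Luciferase luminescence was read after lysis.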
Giardia killer: Giardia lamblia killing; AID 540267; activity change, % at 7.66 µM, hits read low; 340,000 compounds, 0.15% hits; Giardia lamblia trophozoite viability; in the data active = activity change below about -80%; inconclusive = between about -30% and that limit;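 also: parasites exposed to compound for two days anaerobically before the ATP read; % is scaled to controls: 0 for no effect and ±100 for the full control effect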
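Anaerobic 48 hrs incubation at 37 deg C of 100 trophozoites/well with test compounds; ATPLite 1-Step luminescence, 15-30 min RT, reports cellular ATP as viability.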
ALOX12 inh: ALOX12 (human) lipoxygenase inhibition; Potency, µM (doses to about 108 µM), for the others: at the highest dose activity change, negative = inhibition, actives largely listed as inhibitors; 580,000 compounds, 1.1% hits; P18054; AID 1671190; purified 12hLO, xylenol orange hydroperoxide absorbance; also: potency is read from the fitted curve at half-maximal effect; % is scaled to controls: 0 for no effect and ±100 for the full control effect
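Purified human 12hLO (150 nM final) in 25 mM Hepes, 0.01% Triton X-100, pH 7.0 was preincubated 15 min at room temperature with compound. Then 40 uM arachidonic acid was added, 30 min. Hydroperoxide was read by Fe-XO absorbance ratio 573/405 nm.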
PINK1 expr mod: modulators of PINK1 expression; AID 624263; Potency, µM (titrated, usually from 76.6 µM), inactives show at the highest dose activation (PINK1 increase), hits mostly activators; 410,000 compounds, 0.2% hits; PINK1 immunofluorescence, high-content cytometry, 24 h; active = well fitted activation curve with a large enough effect; inconclusive = small, poorly fitted or top-dose-only effect; cell line not stated here; also: potency is read from the fitted curve at half-maximal effect; % of control where 0% means no effect; nearly all actives have a fitted effect of over 65% in size
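A stable cell line was treated with compounds at 5 concentrations for 24 hours, with CCCP as control. PINK1 levels and mitochondrial localization were measured by immunofluorescence with mitochondrial, cell and nuclear markers after fixation, read by laser-scanning cytometry.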
Starred values were filed as active, the others as inactive; i = inactive; ? = inconclusive; · = no result given; [ ] = another dose, or the depositor's remark. Unless noted, calls follow the shape of the dose curve; as a rule, active = well fitted curve in the direction sought with a large enough effect; inconclusive = small, poorly fitted or top-dose-only effect, or another doubt; inactive = no such curve, though single readings can be large; an effect the other way counts as inactive or inconclusive.

| entry | molecule | ERG Ets-DNA blk | PTHR1 ag | miR-21 FLuc |
| --- | --- | --- | --- | --- |
| 1 | CC(C)(C)NC(=O)Cn1cc(S(=O)(=O)Cc2ccc(F)cc2)c2ccccc21 | -2.0% | i | 0.7% |
| 2 | COc1ccc(NC(=O)Cn2cc(S(=O)(=O)Cc3ccc(F)cc3)c3ccccc32)cc1OC | 0.5% | i | 11.3% |
| 3 | N#CC1=C(c2ccc(-c3ccccc3)cc2)COC1=O | 9.0% | -6.0% | -17.7% |
| 4 | O=C(O)c1cc(S(=O)(=O)N2CCN(S(=O)(=O)c3ccccc3)CC2)ccc1Cl | -11.6% | i | 2.8% |
| 5 | O=C(O)c1cc(S(=O)(=O)N2CCN(C(c3ccccc3)c3ccccc3)CC2)ccc1Cl | -2.9% | -11.6% | -0.5% |
| 6 | CCn1c(SCC(=O)Nc2cccc(NC(C)=O)c2)nnc1-c1ccco1 | 7.2% | -0.4% | -6.2% |
| 7 | CCn1c(SCC(=O)Nc2ccc3c(c2)c2ccccc2n3CC)nnc1-c1ccco1 | · | -7.1%[57.5 µM] | 0.2% |
| 8 | CCCc1cc(=O)n2[nH]c(NCc3ccccc3Cl)nc2n1 | -0.5% | i | -4.4% |
| 9 | CC(C)(C)c1cc(/C=C/C(=O)O)cc(C(C)(C)C)c1O | · | · | · |
| 10 | CC(C)(C)c1cc(C=O)cc(C(C)(C)C)c1O | · | · | · |

| entry | Giardia killer | ALOX12 inh | PINK1 expr mod |
| --- | --- | --- | --- |
| 1 | · | -30.0% | 0.2% |
| 2 | · | 50.1µM* | 0.8% |
| 3 | -2.1 | 50.1µM* | 0.1% |
| 4 | -12.2 | -21.4% | -2.7% |
| 5 | -9.8 | 39.8µM* | -0.6% |
| 6 | -6.2 | -10.7% | -1.0% |
| 7 | -1.5 | 11.2µM* | · |
| 8 | 7.0 | 7.6% | 4.2% |
| 9 | · | 8.91µM* | · |
| 10 | · | 2.4% | · |

Later entries
| entry | molecule | ERG Ets-DNA blk | PTHR1 ag | miR-21 FLuc |
| --- | --- | --- | --- | --- |
| 11 | Cc1cc(Cl)ccc1NC(=S)Nc1ccccn1 | 1.9% | -22.6% | -47.5% |
| 12 | COc1ccccc1NC(=S)Nc1ccccn1 | 2.7% | i | -11.0% |
| 13 | Cc1ccc(NC(=S)Nc2ccccn2)c(C)c1 | 6.5% | -16.3% | -27.1% |
| 14 | Cc1cc(C)cc(NC(=S)Nc2ccccn2)c1 | 0.4% | i | -14.6% |
| 15 | Cc1ccc(NC(=S)NNC(=S)Nc2ccc(C)cc2C)cc1 | 22.5% | -23.3% | 16.1% |
| 16 | Cc1ccc(NC(=O)CCC(=O)NNC(=S)Nc2ccccc2)c(C)c1 | 2.0% | i | -1.4% |
| 17 | COc1cccc(OC)c1C(=O)NC(=S)NCc1ccccc1 | 1.2% | i | 0.1% |
| 18 | Cc1ccc(NC(=S)Nc2ccccn2)cc1C | 5.4% | -11.7% | -48.5% |
| 19 | Cc1cccc(NC(=S)Nc2ccccn2)c1 | 0.3% | -14.7% | -56.4% |
| 20 | Cc1ccccc1-c1nc2cc(NC(=O)/C=C/c3ccco3)ccc2o1 | · | · | · |

| entry | Giardia killer | ALOX12 inh | PINK1 expr mod |
| --- | --- | --- | --- |
| 11 | -24.3 | ? | 4.4% |
| 12 | -12.1 | 39.8µM* | 6.4% |
| 13 | -0.8 | 11.2µM* | -2.0% |
| 14 | 0.6 | 6.31µM* | -0.4% |
| 15 | 1.6 | 35.5µM* | ? |
| 16 | 0.3 | -5.9% | -1.1% |
| 17 | 13.8 | 2.0% | 0.5% |
| 18 | -2.8 | ? | -0.8% |
| 19 | -8.6 | 28.2µM* | 1.4% |
| 20 | · | 25.1µM* | · |

Going on with the list.
| entry | molecule | ERG Ets-DNA blk | PTHR1 ag | miR-21 FLuc |
| --- | --- | --- | --- | --- |
| 21 | O=C1OC(c2ccccc2)(c2cc(Br)c(O)c(Br)c2)c2ccccc21 (stereo not given) | 14.4% | i | · |
| 22 | O=C1OC(c2cc(I)c(O)c(I)c2)(c2cc(I)c(O)c(I)c2)c2ccccc21 | · | · | · |
| 23 | COc1cc(C(=O)Nc2ccc3c(c2)NC(=O)C(C)O3)cc(OC)c1OC (stereo not given) | · | · | · |
| 24 | CCN1CCC(N2CCN(c3ccc(Cl)cc3)CC2)CC1 | -10.2% | i | -6.3% |
| 25 | CCCN1CCC(N2CCN(c3ccc([N+](=O)[O-])cc3)CC2)CC1 | 14.2% | i | -7.5% |
| 26 | CSCCCNC(=O)c1c(C)noc1-c1ccco1 | · | · | · |
| 27 | Fc1ccc(Nc2cncc(-c3ccsc3)c2)cc1Cl | · | -18.7% | · |
| 28 | CC1C(c2ccc3c(c2)OCO3)c2cc3c(cc2OC1N1CCOCC1)OCO3 (stereo not given) | · | -2.8% | · |
| 29 | Fc1ccccc1/C=N/N1CCN(Cc2ccccc2Cl)CC1 | 0.4% | -25.4% | -22.6% |
| 30 | O=[N+]([O-])c1ccccc1/C=N\N1CCN(Cc2ccccc2Cl)CC1 | 0.6% | -37.0% | -18.3% |
| 31 | COc1ccc(NC(=O)CSc2nnc3ccc(-c4ccncc4)nn23)cc1 | -13.9% | i | · |

| entry | Giardia killer | ALOX12 inh | PINK1 expr mod |
| --- | --- | --- | --- |
| 21 | -10.5 | ? | -0.3% |
| 22 | · | 10µM* | · |
| 23 | · | -29.6% | · |
| 24 | -6.2 | · | 0.3% |
| 25 | 17.6 | 0.891µM* | -1.4% |
| 26 | · | 17.6% | · |
| 27 | · | 39.8µM* | 5.6% |
| 28 | -10.4 | -3.4% | 0.1% |
| 29 | 9.7 | 12.6µM* | ? |
| 30 | -11.8 | 140.5% | -0.1% |
| 31 | 26.1 | 15.2% | 0.4% |

4 entries from above, reformatted:
[28] CC1C(c2ccc3c(c2)OCO3)c2cc3c(cc2OC1N1CCOCC1)OCO3 (stereo not given)
[23] COc1cc(C(=O)Nc2ccc3c(c2)NC(=O)C(C)O3)cc(OC)c1OC (stereo not given)
[24] CCN1CCC(N2CCN(c3ccc(Cl)cc3)CC2)CC1
[22] O=C1OC(c2cc(I)c(O)c(I)c2)(c2cc(I)c(O)c(I)c2)c2ccccc21
Compound | 28 | 23 | 24 | 22
ERG Ets-DNA blk | · | · | -10.2% | ·
PTHR1 ag | -2.8% | · | i | ·
miR-21 FLuc | · | · | -6.3% | ·
Giardia killer | -10.4 | · | -6.2 | ·
ALOX12 inh | -3.4% | -29.6% | · | 10µM*
PINK1 expr mod | 0.1% | · | 0.3% | ·
